Experimental data taken from US5028622A, “Administration of amino acids as treatment for neurodegenerative disorders” (Ajinomoto Company, Inc., priority 1989, dated 1991).

Sequences of proteins named here, by UniProt entry; tags and fusion partners are left off. Residues count along the entry.
UniProt P00367, 54-558: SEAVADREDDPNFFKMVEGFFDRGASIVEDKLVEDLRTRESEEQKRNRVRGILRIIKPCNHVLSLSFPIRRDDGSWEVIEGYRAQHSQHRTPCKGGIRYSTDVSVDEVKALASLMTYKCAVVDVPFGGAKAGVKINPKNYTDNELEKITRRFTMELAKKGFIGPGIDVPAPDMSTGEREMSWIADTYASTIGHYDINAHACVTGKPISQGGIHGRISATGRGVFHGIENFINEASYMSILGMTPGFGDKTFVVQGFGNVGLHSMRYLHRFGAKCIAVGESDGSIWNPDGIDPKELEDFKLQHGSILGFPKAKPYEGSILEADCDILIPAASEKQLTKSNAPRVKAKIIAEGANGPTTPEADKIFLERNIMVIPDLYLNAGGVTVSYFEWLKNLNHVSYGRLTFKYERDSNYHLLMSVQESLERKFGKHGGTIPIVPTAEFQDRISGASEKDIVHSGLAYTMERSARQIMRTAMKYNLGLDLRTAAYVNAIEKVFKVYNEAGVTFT

Biological target: T1, glutamate dehydrogenase (GDH) (Homo sapiens, UniProt P00367)
T1 construct: GDH present in post mortem brain tissue; from tissue; host or cells: human post mortem brain: cerebellum (control and multisystem atrophy patient 1), frontal cortex (multisystem atrophy patient 2)
Assay: In vitro leucine activation of membrane bound GDH in post mortem brain tissue
Format: biochemical
Conditions: control cerebellum and multisystem atrophy-multineuron degeneration disease cerebellum and frontal cortex
From the text: (Table 4) Tissue preparation and GDH determinations were done according to methods previously reported. [A. D. Colon, A. Plaitakis, S. Berl, and D. D. Clark. "The purification and characterization of soluble and particulate Glutamate Dehydrogenase in Rat Brain," Neurochemistry, 1986, 46:1811-1819. The contents of this publication are herein incorporated by reference] […] FIG. 4.

`CC(C)C[C@H](N)C(=O)O` [L-leucine] was tested, and the “activation of GDH” value was “significant activation”.
